Measured values from patent US10906900B2, “Compounds for using in imaging and particularly for the diagnosis of neurodegenerative diseases” (CENTRE NATIONAL DE LA RECHERCHE SCIENTIFIQUE, priority 2016, dated 2021).

The chains behind the UniProt entries cited, without tags or fusion partners. Residues count along the entry.
UniProt P05067, 672-713 limits assumed: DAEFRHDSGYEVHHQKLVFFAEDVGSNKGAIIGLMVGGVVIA

What was measured:
Tau fibres = Tau fibres (Homo sapiens (Human), UniProt P10636); assay: In vitro inhibition of ThT binding and determination of Ki (fluorescence), Tau fibres; settings: value used in Cheng-Prusoff equation; read-out: affinity (KdThT) for Tau fibers
Procedure: Tau protein in PBS buffer containing 1 mM DTT is assembled into fiber in the presence of one twelfth of a molar equivalent of heparin at 37° C. under stirring.
(§1) The samples are incubated for 1 h at room temperature (RT) to reach equilibrium. […] From each curve, the IC50 value is measured using the following equation: Y=min+(max−min)/1+([…])^slope

Aβ1-42 fibres = Aβ1-42 fibres (Homo sapiens, UniProt P05067); assay: In vitro inhibition of ThT binding and determination of Ki (fluorescence), Aβ1-42 fibres; settings: value used in Cheng-Prusoff equation; read-out: affinity (KdThT) for Aβ1-42 fibers
Procedure: To obtain fiber assembly, α-syn is incubated in Tris-HCl 50 mM pH7.5, KCl 150 mM at 37° C. under continuous agitation during 4 days. The lyophilized Aβ1-42 was dissolved in 1,1,1,3,3,3-Hexafluoro-2-propanol (HFIP) at 0.2 mg/mL and incubated for 24 h at 37° C. to obtain the complete solubilization. The HFIP is evaporated under nitrogen stream to obtain a dry product. To start the fiber assembly, the dry peptide is resuspended in PBS pH7.4, 10% (v/v) DMSO and incubated at 37° C. for 3 days without agitation.
Protein fibers are systematically observed by electron microscopy (Jeol 1400). The images are recorded with a CCD camera (Gatan Orius). Finally, the percentage of α-syn and Aβ1-42 aggregated into fibers is checked on the pellet after centrifugation at 40000×g for 20 min and determination of the concentration of soluble protein/peptide remaining in the supernatant.
as §1

`Cc1ccc2c(c1)sc(-c1ccc(N(C)C)cc1)[n+]2C` [ThT, thioflavin T, reference compound] was tested, and the Kd (Tau fibres) was 350 nM and the Kd (Aβ1-42 fibres) was 500 nM.
